What is called IC50 is the point on the concentration scale where inhibition reaches its midpoint. A high value points to weaker potency.

By UniProt entry, the sequences of proteins in these tests, tags left out. Where a name states a change or a piece, a line headed by the entry shows the natural chain unless it says otherwise. Residues count along the entry.
UniProt Q13946: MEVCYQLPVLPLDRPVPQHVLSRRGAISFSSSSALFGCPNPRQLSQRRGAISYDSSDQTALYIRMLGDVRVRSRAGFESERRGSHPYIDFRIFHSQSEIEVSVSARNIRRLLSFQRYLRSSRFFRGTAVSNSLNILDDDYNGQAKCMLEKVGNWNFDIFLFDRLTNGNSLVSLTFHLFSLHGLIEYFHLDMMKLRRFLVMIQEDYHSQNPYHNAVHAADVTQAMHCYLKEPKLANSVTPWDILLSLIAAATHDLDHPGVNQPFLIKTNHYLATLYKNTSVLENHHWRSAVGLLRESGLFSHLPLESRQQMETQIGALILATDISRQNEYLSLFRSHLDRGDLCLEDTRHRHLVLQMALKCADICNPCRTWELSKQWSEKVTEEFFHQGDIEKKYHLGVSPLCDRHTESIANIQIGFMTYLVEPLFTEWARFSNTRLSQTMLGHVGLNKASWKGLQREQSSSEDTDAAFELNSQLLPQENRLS
UniProt Q9NP56, 107-450 limits assumed: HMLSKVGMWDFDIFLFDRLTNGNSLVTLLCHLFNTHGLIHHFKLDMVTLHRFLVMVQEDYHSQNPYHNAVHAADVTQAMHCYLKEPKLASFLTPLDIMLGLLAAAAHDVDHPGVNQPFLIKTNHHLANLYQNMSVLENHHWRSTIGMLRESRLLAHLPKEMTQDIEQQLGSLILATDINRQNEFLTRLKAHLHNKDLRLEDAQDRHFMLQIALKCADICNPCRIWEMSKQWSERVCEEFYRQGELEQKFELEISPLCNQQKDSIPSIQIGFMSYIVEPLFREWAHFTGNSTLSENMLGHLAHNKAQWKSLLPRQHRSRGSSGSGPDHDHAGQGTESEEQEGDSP

Each structure is given as a SMILES string. Several values for one entry are separate records, joined by “and”; a condition that tells them apart may be missing. Equal entries are not always repeated.

Consider two compounds from patent US8637528B2, “Use of PDE7 inhibitors for the treatment of movement disorders” (Omeros Corporation, priority 2007, dated 2014).

For one test, the target named is PDE7A (Homo sapiens (Human), UniProt Q13946). The test is described as follows: PDE7 phosphodiesterase scintillation proximity assay (SPA), PDE7A. The test is classed as biochemical. An excerpt: The recombinant human PDE7A enzyme was purchased from BPS Bioscience (Catalog #60070), Genbank Accession No. NM_002603 (amino acid 121-end) with an N-terminal GST tag, MW=66 kDa, expressed in a Baculovirus infected Sf9 cell expression system, with a specific activity of 302 μmol/min/μg. The recombinant human PDE7B enzyme was purchased from BPS Bioscience (Catalog #60071), Genbank Accession No. NM_018945 (amino acid 107-end), with an N-terminal GST tag, MW=66 kDa, expressed in a Baculovirus infected Sf9 cell expression system, with a specific activity of 53 pmol/min/μg. The assay method used was a scintillation proximity assay (SPA) (obtained from GE Healthcare, Product Code TRKQ7100), with [^3H]-cGMP as the substrate (SPA manual, Amersham Biosciences). […] The mixture was shaken, allowed to settle for 3 hours, then the production of [^3H]-5′AMP from the substrate was quantitated by scintillation counting in a Wallac®plate counter. The results in net cpm values were fitted to a four parameter logistic model using Excel Solver®.
In general terms: SPA uses beads or plates that emit light when radiolabelled molecules are held near them.

The target in a further test is PDE7B (Homo sapiens (Human), UniProt Q9NP56). The test is described as follows: PDE7 phosphodiesterase scintillation proximity assay (SPA), PDE7B. In kind it is biochemical. The method, then: The compounds listed in TABLE 1 were tested for inhibitory activity in a PDE7 phosphodiesterase assay performed using recombinant human PDE7A and 7B enzymes expressed in a baculoviral system. The recombinant human PDE7A enzyme was purchased from BPS Bioscience (Catalog #60070), Genbank Accession No. NM_002603 (amino acid 121-end) with an N-terminal GST tag, MW=66 kDa, expressed in a Baculovirus infected Sf9 cell expression system, with a specific activity of 302 μmol/min/μg. The recombinant human PDE7B enzyme was purchased from BPS Bioscience (Catalog #60071), Genbank Accession No. NM_018945 (amino acid 107-end), with an N-terminal GST tag, MW=66 kDa, expressed in a Baculovirus infected Sf9 cell expression system, with a specific activity of 53 pmol/min/μg.
The assay method used was a scintillation proximity assay (SPA) (obtained from GE Healthcare, Product Code TRKQ7100), with [^3H]-cGMP as the substrate (SPA manual, Amersham Biosciences). Purified human PDE7A and PDE7B (obtained from BPS Bioscience, San Diego, Calif.) were diluted and stored in a solution containing 25 mM Tris-Cl (pH 8.0), 100 mM NaCl, 0.05% Tween 20, 50% glycerol, and 3 mM DTT. […]
The mixture was shaken, allowed to settle for 3 hours, then the production of [^3H]-5′AMP from the substrate was quantitated by scintillation counting in a Wallac®plate counter. […]

With `CC(=O)Nc1ccc(-c2nn(C)/c(=N/C3CCCCC3)s2)cc1` [OM956], the IC50 came out at 140 nM at PDE7A and 144 nM on PDE7B.
As to `COc1cc(N)ccc1-c1nc2c(C)nn(C3CCCCC3)c2c(=O)[nH]1` [OM056], the IC50 against PDE7A was 5.7 nM and 5.67 nM.
